Legend:
[1] = target: Bifunctional dihydrofolate reductase-thymidylate synthase (Plasmodium falciparum K1, UniProt P13922, A16V/S108T); assay: Binding affinity towards mutant dihydrofolate reductase (A16V+S108T DHFR) of Plasmodium falciparum.
In short: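 Wild-type and mutant PfDHFR were expressed in E. coli BL21(DE3)pLysS. Enzyme was purified on methotrexate-Sepharose. Ki was calculated assuming inhibitors compete with substrate at the active site.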

The chains behind the UniProt entries cited, without tags or fusion partners.
UniProt P13922, whole entry, looked up, stated change not applied: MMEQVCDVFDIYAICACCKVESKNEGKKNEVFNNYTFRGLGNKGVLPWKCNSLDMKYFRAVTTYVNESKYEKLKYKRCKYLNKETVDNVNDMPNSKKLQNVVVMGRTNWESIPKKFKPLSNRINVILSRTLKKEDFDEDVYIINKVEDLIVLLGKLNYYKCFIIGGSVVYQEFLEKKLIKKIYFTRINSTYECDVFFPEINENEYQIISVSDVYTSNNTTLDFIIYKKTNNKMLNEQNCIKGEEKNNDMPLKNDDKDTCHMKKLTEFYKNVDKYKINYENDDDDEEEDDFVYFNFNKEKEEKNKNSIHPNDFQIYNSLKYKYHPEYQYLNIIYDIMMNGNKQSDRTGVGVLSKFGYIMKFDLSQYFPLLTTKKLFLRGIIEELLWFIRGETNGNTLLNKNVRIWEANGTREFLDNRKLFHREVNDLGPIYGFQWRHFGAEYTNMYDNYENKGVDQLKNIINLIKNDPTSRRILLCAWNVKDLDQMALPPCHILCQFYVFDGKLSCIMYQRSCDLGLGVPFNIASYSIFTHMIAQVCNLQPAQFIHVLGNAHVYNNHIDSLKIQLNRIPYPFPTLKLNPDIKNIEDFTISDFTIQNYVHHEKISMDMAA

[2] = target: Bifunctional dihydrofolate reductase-thymidylate synthase (Plasmodium falciparum K1, UniProt P13922, C59R/I164L/S108N); assay: Binding affinity towards mutant dihydrofolate reductase (C59R+S108N+I164L DHFR) of Plasmodium falciparum
[3] = target: Bifunctional dihydrofolate reductase-thymidylate synthase (Plasmodium falciparum K1, UniProt P13922, C59R/I164L/N51I/S108N); assay: Binding affinity towards mutant dihydrofolate reductase (N51I+C59R+S108N+I164L DHFR) of Plasmodium falciparum
[4] = target: Bifunctional dihydrofolate reductase-thymidylate synthase (Plasmodium falciparum K1, UniProt P13922, C59R/N51I/S108N); assay: Binding affinity towards mutant dihydrofolate reductase (N51I+C59R+S108N DHFR) of Plasmodium falciparum
[5] = target: Bifunctional dihydrofolate reductase-thymidylate synthase (Plasmodium falciparum K1, UniProt P13922); assay: Binding affinity towards wild-type dihydrofolate reductase of Plasmodium falciparum.

| Compound | Ki [1] | Ki [2] | Ki [3] | Ki [4] | Ki [5] |
| --- | --- | --- | --- | --- | --- |
| CC1(C)N=C(N)N=C(N)N1c1cccc(Cl)c1 | 308 nM | 14 nM | 25 nM | 2.2 nM |  |
| CC1N=C(N)N=C(N)N1c1cccc(Cl)c1 (centres undefined) |  | 9.9 nM | 14.3 nM | 4.2 nM | 10.2 nM |
| NC1=NC(c2ccccc2)N(c2ccc(Cl)cc2)C(N)=N1 (centres undefined) |  |  |  |  | 4.5 nM |

Reference: ChEMBL document CHEMBL1138835, “Inhibitors of multiple mutants of Plasmodium falciparum dihydrofolate reductase and their antimalarial activities” (J Med Chem, 2004)
